Measured values published in patent publication US20240300940A1, “Phenothiazinyl Compounds and Uses” (Prosetta Biosciences, Inc., priority 2023, published 2024).

Key:
[1] = tested on: macrolide resistant S. aureus
[2] = tested on: ciprofloxacin resistant E. faecium
[3] = tested on: all the gram-positive species; assay: Minimum bactericidal concentration assay, summary; type: cell-based
Method: The study was done based on CLSI document M26-A Wayne, PA: Clinical and laboratory standard institute: 1999.
After determination of a MIC in a broth system under standard conditions, measured aliquots of growth media may be sub-cultured quantitatively to solid media to assess bactericidal activity. To calculate the extent of killing at each antibiotic concentration, plates are incubated under appropriate conditions, colony counts are performed and results are compared to that of the growth control well. The accepted definition of the minimum bactericidal concentration (MBC) is the lowest concentration of test compound at which a 99.9% (3 log) or greater reduction in growth compared with the initial inoculum is observed. Minimum bactericidal concentration of compound 1 against all the gram-positive species was not exceeded >2× MIC indicting its bactericidal mode of killing. (Table 4).

[4] = tested on: chloramphenicol resistant strain
[5] = tested on: vancomycin resistant E. faecium
[6] = tested on: tetracycline resistant S. aureus
[7] = Organ exposure in mice; conditions: mice IV 3 mg/kg
[8] = Mouse plasma pharmacokinetics; conditions: mice, IV 3 mg/kg single dose
[9] = tested on: kanamycin resistant strain
[10] = tested on: MRSA ATCC43300 (Methicillin resistant)

Compound: CC1(C)C2CN(c3ccc4nc5ccc(N6CC7C(C6)C7(C)C)cc5[s+]c4c3)CC21 (centres unmarked) [Compound 1, 3,7-Di(6,6-dimethyl-3-azabicyclo[3.1.0]hexan-N-yl)phenothiazinium iodide]
- Activity against resistant bacteria in ‘X’ MIC [1]: 1X ‘X’ MIC
- Activity against resistant bacteria in ‘X’ MIC [2]: 1X ‘X’ MIC
- Minimum bactericidal concentration relative to MIC [3]: ≤ 2 × MIC
- Activity against resistant bacteria in ‘X’ MIC [4]: 1X ‘X’ MIC
- Activity against resistant bacteria in ‘X’ MIC [5]: 1X ‘X’ MIC
- Activity against resistant bacteria in ‘X’ MIC [6]: 1X ‘X’ MIC
- Distribution in kidney and heart [7]: above the MIC and sufficient to achieve efficacy
- Distribution in lungs and liver [7]: very high
- AUC and Cmax relative to MIC [8]: more than 10 × MIC
- Activity against resistant bacteria in ‘X’ MIC [9]: 1X ‘X’ MIC
- Activity against resistant bacteria in ‘X’ MIC [10]: 1X ‘X’ MIC
